Values quoted from earlier work, collected in patent publication US5153181A, “Pharmaceutical compositions comprising organic polymers containing inorganic anionic groups and method of prophylaxis and treatment of retrovirus infections in mammals using said compositions” (priority 1986, dated 1992).

Conditions: known from the literature; cited from earlier work

Substance | LD50
dextran sulfate MW 8,000 | 2000 mg/kg
dextran sulfate MW 500,000 | 150 mg/kg
pentosan polysulfate MW 5,000 | 1000 mg/kg
